Values of other authors, collected in patent publication US20220195027A1, “ANTI-ANGIOGENESIS THERAPY FOR THE TREATMENT OF PREVIOUSLY TREATED BREAST CANCER” (Genentech, Inc., priority 2009, published 2022).

Key:
[1] = test system: HER2 overexpressing metastatic breast cancer; settings: cited from earlier work
[2] = test system: HER2 overexpressing metastatic breast cancer; settings: 222 women, open-label phase II; cited from earlier work

Substance: trastuzumab: recombinant humanized monoclonal antibody directed against HER2
- Overall response rate and time to progression, result in words ([1]; added to chemotherapy vs chemotherapy alone): significantly improved
- overall survival, result in words ([1]; added to chemotherapy): prolonged overall survival
- confirmed complete responses [2]: six
